The values that follow come from US20260265405A1.

For test [1], the target named is membrane-bound human MSLN (on CHOK1-hu MSLN cells and endogenously on COV644 cells) (human) (UniProt Q13421). Briefly: flow cytometry on COV644 cells (endogenous human MSLN), Alexa Fluor 488 anti-human IgG detection [panel A]. On the technique in general: A flow cytometer gives signals particle by particle.
The target is the same in test [2]. The test is described as follows: flow cytometry on CHOK1-human MSLN cells, Alexa Fluor 488 anti-human IgG detection [panel A].
Test [3] has the same target. The test is described as follows: flow cytometry on CHOK1-human MSLN cells, Alexa Fluor 488 anti-human IgG detection [panel B].

One may read the EC50 (read off the curve) as the concentration needed to bring the measured effect to its halfway point. The low end stands for greater potency, the high end for weaker potency. In the case of PR000685 (Amatuximab) (antibody), the EC50 (read off the curve) amounted to 0.2 nM in test [1], 0.6 nM in test [2] and 0.6 nM in test [3].
